From patent US20240009246A1, “CELLULAR-ANTIMICROBIAL COMBINATION COMPOSITION AND METHODS FOR TREATMENT OF BACTERIAL INFECTIONS OF JOINTS AND SOFT TISSUES” (priority 2021, published 2024)

Assays:
SYNOVIOCYTES = assay: in vitro cytotoxic activity of antibiotics against dog synoviocytes; type: cell-based
Description: (§1) Table 1 and 2 represent in vitro evaluation of the cytotoxic activity of different conventional antibiotics, as assessed for toxicity against dog cells (Table 1) or horse cells (Table 2). Similar toxicity profiles would also be anticipated for human cells. The antibiotics with the highest IC50 values are considered non-cytotoxic, while those with lower values are considered more cytotoxic, and unsuitable for co-administration with activated MSC or activated iMSCs.

CHONDROCYTES = assay: in vitro cytotoxic activity of antibiotics against dog chondrocytes; type: cell-based
Description: as §1

Ampicillin sulbactam
IC50 (cytotoxicity) (SYNOVIOCYTES): 3.074 mg/mL | IC50 (cytotoxicity) (CHONDROCYTES): 8.635 mg/mL
